Results on two molecules are retold here after BindingDB's records for doi:10.1021/jm00060a014 (Upjohn Laboratories, 1993).

This experiment can be described thus: Binding affinity against [3H]8-OH-DPAT-labeled 5-hydroxytryptamine 1A receptor sites in bovine hippocampus.

For orientation: Ki means the dissociation constant of the complex between target and ligand, obtained from inhibition or displacement. Read a high Ki as a looser hold on the target.

`CCCN1CCC2c3c(O)cccc3CCC21` (racemic) [3-Propyl-2,3,3a,4,5,9b-hexahydro-1H-benzo[e]indol-9-ol] returned an inhibition constant Ki of 1.4 nM.

The molecule `CCCN1CCC2c3c(O)cccc3CC[C@@H]21` (some centres not stated) [3-Propyl-2,3,3a,4,5,9b-hexahydro-1H-benzo[e]indol-9-ol] had a Ki of 3 nM.
